From patent publication US9676721B2, “Compounds and compositions for the inhibition of NAMPT” (FORMA TM, LLC, priority 2010, dated 2017)

By UniProt entry, the sequences of proteins in these tests, tags left out. Where a name states a change or a piece, a line headed by the entry shows the natural chain unless it says otherwise.
UniProt P43490: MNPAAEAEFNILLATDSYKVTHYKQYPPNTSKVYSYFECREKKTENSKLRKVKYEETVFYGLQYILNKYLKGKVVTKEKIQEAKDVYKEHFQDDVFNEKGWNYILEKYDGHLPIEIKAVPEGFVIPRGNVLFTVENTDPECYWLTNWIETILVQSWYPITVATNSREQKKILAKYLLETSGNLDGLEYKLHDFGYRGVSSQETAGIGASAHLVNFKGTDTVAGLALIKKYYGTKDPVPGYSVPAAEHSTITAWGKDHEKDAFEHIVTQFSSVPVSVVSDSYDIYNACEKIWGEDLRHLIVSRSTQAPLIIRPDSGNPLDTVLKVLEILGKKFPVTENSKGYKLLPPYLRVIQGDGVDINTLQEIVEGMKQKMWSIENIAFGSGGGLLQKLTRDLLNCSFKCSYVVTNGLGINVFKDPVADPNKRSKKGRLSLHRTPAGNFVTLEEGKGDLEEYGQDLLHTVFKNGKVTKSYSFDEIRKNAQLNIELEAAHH

Molecular target: NAMPT (Homo sapiens (Human), UniProt P43490)
Assay: Biochemical Inhibition Assay (NAMPT enzymatic reaction, NMN by mass spectrometry)
Conditions: recombinant His-tagged NAMPT 33 nM, 1 μM NAM, 30 minutes; read-out: Biochem IC50
Experimental: Biochemical Inhibition Assay NAMPT Protein Purification Recombinant His-tagged NAMPT was produced in E. coli cells, purified over a Ni column, and further purified over a size-exclusion column by XTAL Biostructures. The NAMPT Enzymatic Reaction The NAMPT enzymatic reactions were carried out in Buffer A (50 mM Hepes pH 7.5, 50 mM NaCl, 5 mM MgCl2, and 1 mM THP) in 96-well V-bottom plates. The compound titrations were performed in a separate dilution plate by serially diluting the compounds in DMSO to make a 100× stock. Buffer A (89 μL) containing 33 nM of NAMPT protein was added to 1 μL of 100× compound plate containing controls (e.g. DMSO or blank). […] Background and signal strength was determined by addition (or non-addition) of a serial dilution of NMN to a pre-quenched enzyme and cofactor mix. Quantification of NMN A mass spectrometry-based assay was used to measure the NAMPT reaction product (NMN) and the internal control (L-Cystathionine). NMN and L-Cystathionine were detected using the services of Biocius Lifesciences with the RapidFire system. […] The components of the sample were ionized with electrospray ionization and the positive ions were detected. […] The fragments are quantified and the analyzed by the following method. % Inhibitions are Determined Using this Method. […] IC50s are Determined Using Excel and this Formula. […]

IC50 [nM]	Compound
5.1	N#CN=C(NCc1ccc(S(=O)(=O)c2cccc3c2OCO3)cc1)Nc1ccncc1 [1-{[4-(2H-1,3-benzodioxole-4-sulfonyl)phenyl]methyl}-2-cyano-3-(pyridin-4-yl)guanidine]
6.1	N#CN=C(NCc1ccc(S(=O)(=O)c2ccc(-n3cccn3)c(F)c2)cc1)Nc1ccncc1 [2-cyano-1-[(4-{[3-fluoro-4-(1H-pyrazol-1-yl)benzene]sulfonyl}phenyl)methyl]-3-(pyridin-4-yl)guanidine]
